What was measured:
[1] = target: T1, Phosphatidylinositol 4,5-bisphosphate 3-kinase catalytic subunit delta isoform (Homo sapiens, UniProt O00329)
T1 sequence (O00329 whole entry): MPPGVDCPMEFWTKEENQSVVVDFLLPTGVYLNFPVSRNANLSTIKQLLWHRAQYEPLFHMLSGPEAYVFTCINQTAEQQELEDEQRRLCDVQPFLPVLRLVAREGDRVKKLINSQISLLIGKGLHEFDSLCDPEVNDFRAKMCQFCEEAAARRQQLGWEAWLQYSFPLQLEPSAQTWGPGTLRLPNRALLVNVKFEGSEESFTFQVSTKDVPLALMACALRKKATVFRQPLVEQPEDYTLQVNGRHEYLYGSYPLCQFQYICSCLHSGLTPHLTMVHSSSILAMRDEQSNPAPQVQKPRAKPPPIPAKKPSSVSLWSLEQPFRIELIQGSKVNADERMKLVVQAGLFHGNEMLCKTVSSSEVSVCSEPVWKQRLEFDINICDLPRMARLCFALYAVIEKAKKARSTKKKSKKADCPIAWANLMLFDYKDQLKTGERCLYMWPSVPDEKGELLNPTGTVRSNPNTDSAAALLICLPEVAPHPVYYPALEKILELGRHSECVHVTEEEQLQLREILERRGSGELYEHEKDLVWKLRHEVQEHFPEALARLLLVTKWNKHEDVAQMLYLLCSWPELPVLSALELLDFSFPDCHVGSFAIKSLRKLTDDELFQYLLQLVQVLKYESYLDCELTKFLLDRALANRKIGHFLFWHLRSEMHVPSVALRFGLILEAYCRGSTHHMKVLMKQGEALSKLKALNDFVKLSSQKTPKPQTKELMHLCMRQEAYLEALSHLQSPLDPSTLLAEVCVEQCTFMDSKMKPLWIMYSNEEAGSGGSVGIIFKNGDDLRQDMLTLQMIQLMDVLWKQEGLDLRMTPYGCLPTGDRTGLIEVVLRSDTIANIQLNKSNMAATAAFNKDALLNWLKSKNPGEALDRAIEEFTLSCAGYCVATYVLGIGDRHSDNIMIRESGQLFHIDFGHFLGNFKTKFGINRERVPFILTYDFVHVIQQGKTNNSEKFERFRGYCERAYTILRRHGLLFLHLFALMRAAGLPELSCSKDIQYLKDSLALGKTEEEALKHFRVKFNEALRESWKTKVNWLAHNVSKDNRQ

Amino acid sequences for entries named in this document (tags omitted). A change or cut given only in a name is not applied to a line headed by its entry.
UniProt P48736: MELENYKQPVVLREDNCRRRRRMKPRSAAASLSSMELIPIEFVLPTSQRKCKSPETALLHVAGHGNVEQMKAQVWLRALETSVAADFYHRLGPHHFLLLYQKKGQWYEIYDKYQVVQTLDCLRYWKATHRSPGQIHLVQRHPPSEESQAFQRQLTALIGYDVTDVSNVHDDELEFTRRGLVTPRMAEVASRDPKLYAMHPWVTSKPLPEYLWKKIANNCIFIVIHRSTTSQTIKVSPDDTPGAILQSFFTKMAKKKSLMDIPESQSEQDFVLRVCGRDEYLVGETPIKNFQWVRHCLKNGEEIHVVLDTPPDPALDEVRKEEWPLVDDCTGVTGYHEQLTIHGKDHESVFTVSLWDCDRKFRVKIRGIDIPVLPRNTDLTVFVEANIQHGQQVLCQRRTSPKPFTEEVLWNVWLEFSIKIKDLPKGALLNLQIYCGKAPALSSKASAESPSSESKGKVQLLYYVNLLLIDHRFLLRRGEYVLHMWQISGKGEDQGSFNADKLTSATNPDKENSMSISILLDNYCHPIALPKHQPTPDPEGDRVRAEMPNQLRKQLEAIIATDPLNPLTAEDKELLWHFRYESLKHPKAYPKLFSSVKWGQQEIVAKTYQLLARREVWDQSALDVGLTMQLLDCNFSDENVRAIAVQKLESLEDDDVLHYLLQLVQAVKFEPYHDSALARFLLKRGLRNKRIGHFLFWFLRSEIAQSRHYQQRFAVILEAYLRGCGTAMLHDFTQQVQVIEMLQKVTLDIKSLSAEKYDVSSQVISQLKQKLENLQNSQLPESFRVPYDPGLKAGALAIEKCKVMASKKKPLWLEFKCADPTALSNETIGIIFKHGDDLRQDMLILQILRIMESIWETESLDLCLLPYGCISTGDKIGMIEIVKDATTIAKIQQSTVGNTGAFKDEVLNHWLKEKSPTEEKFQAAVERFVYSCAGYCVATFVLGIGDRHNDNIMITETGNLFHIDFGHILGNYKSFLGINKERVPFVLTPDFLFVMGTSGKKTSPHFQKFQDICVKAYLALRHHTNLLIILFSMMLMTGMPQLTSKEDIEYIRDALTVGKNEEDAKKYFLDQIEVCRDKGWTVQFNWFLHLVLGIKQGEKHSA

[2] = target: T1, Phosphatidylinositol 4,5-bisphosphate 3-kinase catalytic subunit delta isoform; experiment: Inhibition of PI3Kdelta in human whole blood assessed as inhibition of CD69 production in B lymphocyte by immunoassay
[3] = target: Phosphatidylinositol 4,5-bisphosphate 3-kinase catalytic subunit gamma isoform (Homo sapiens, UniProt P48736); experiment: Inhibition of PI3Kgamma using phosphatidylinositol as substrate by gamma33P[ATP] incorporation assay

SMILES | IC50 [1] | further results
CC(Nc1ncnc2[nH]cnc12)c1cc(Cl)c2ccnnc2c1-c1cccc(F)c1 (centres undefined) | < 50 nM | –
CCc1nc2ccccc2n1-c1nc(N2CCOCC2)c2nc(OC3CN(C(=O)C(C)C)C3)n(C)c2n1 | – | IC50 [2]: 5.2 nM
Cc1csc2nc([C@H](C)Nc3ncnc4[nH]cnc34)c(-c3cccc(F)c3)c(=O)n12 [DEZAPELISIB] | < 50 nM | –
O=c1cc(N2CCOCC2)oc2c(-c3ccccc3)cccc12 [LY-294002] | – | IC50 [3]: 6600 nM
